The values that follow are results of earlier work, collected in patent US20230065562A1, “DUAL CONTROLS FOR THERAPEUTIC CELL ACTIVATION OR ELIMINATION” (Bellicum Pharmaceuticals, Inc., priority 2015, published 2023).

The chains behind the UniProt entries cited, without tags or fusion partners. Where a name states a change or a piece, a line headed by the entry shows the natural chain unless it says otherwise.
UniProt P62942: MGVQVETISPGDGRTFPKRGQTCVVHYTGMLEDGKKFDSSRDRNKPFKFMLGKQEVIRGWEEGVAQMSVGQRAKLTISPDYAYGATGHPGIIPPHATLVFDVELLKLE

Broadly, the EC50 is the concentration needed to bring the measured effect to its halfway point.

Data set [1] has as its target wt FRB (K2095 T2098 W2101) (Homo sapiens, UniProt P42345+P62942). Conditions: cited from earlier work.
The next data set concerns the target FRB-KLW (Homo sapiens, UniProt P42345+P62942, T2098L). Conditions: cited from earlier work.

S-o,p-dimethoxyphenyl (DMOP)-rapamycin: the figures for the EC50 (in data set [1]; at FRB-KLW) were ~1000 nM and ~5 nM, respectively.
